In ChEMBL document CHEMBL5528084, “Discovery and Characterization of a New Class of C5aR1 Antagonists Showing In Vivo Activity” (J Med Chem, 2024) one finds inhibition data, which are given here for one compound.

The chains behind the UniProt entries cited, without tags or fusion partners. Where a name states a change or a piece, a line headed by the entry shows the natural chain unless it says otherwise.
UniProt Q9P296: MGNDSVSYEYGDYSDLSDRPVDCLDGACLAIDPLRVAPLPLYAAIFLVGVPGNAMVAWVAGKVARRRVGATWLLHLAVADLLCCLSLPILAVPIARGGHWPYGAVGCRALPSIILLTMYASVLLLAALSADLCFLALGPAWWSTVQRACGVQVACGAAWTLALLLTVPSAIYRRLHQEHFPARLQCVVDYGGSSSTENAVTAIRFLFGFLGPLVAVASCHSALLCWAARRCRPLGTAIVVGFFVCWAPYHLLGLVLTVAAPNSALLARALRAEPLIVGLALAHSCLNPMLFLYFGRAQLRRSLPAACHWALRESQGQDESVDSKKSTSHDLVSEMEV

For this experiment, the target named is C5a anaphylatoxin chemotactic receptor 2 (Homo sapiens) (UniProt Q9P296). Put plainly: Inhibition of hC5a binding to C5L2 (unknown origin) upto 25 uM.

Active and inactive are the calls of the source. The calls are words filed in the database; no cut-off is given here.

Turning to `Cc1cccc(F)c1N1CCC(N2Cc3ccccc3N(Cc3ccccc3C(F)(F)F)C2=O)CC1`, the inhibition entry is “inactive”.
